For series [1], the target named is T1, hPXR (Homo sapiens (Human), UniProt O75469). In words: cell-based hPXR antagonistic assay.
For series [2], the target named is T1, hPXR. The experiment in a line: cell-based hPXR inverse agonistic assay.
In series [3] the target is T1, hPXR. In words: hPXR binding assay.
Series [4] deals with T1, hPXR. In words: cell-based hPXR agonistic assay. Conditions: for EC50: read-out: Agonist (EC50/μM), cell-based hPXR agonistic assay.

By UniProt entry, the sequences of proteins in these tests, tags left out. Where a name states a change or a piece, a line headed by the entry shows the natural chain unless it says otherwise.
UniProt O75469: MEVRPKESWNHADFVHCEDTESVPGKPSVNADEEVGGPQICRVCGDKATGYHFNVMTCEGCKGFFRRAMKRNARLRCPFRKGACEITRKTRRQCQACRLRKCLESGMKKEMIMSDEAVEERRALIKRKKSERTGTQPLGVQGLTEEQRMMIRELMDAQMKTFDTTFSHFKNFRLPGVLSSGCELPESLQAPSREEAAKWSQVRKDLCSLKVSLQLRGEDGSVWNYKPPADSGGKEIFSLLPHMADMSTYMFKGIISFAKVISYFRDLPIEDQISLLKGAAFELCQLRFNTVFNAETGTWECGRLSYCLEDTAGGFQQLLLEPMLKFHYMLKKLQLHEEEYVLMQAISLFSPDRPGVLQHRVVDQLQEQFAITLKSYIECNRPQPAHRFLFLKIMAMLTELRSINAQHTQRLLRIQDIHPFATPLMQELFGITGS

From US20250282736A1 (published 2025) come the findings set out here.

For `CCCCOc1ccc(C(C)(C)C)cc1NC(=O)c1nnn(-c2cccc(OC)c2)c1C` [H7], the IC50 at hPXR [1] was over 30 µM; at hPXR [2], over 30 µM; on hPXR [3] (read-out: Binding (IC50/μM), hPXR binding assay) it was 0.53 µM. Moreover, at hPXR [4] (at 10 μM, rifampicin at 10 μM as 100% activation, DMSO (0.3%) as 0%), the “Agonist (% activation at 10 μM)” value is reported as “(36 ± 5)%”. The EC50 on hPXR [4] came out at 3.67 ± 0.74 µM.
On to `CCCCOc1ccc(C(C)(C)C)cc1NC(=O)c1nnn(-c2ccc(OC)c(OC)c2)c1C` [H17], for which the IC50 at hPXR [1], on hPXR [2] and at hPXR [3] was over 30 µM in each case. Also, the EC50 at hPXR [4] was found to be 4.38 ± 0.08 µM.
